Source: PubChem BioAssay
The list is not random: actives were taken first. Their share in the collection is about 2.2%.
Nrf2 inh: Nrf2 pathway inhibition; A549 ARE-Fluc reporter, luciferase luminescence, 18-24 h; Potency, µM (top dose mostly 46 µM), hits mostly inhibitors; 360,000 tested, 2.1% active; further: nearly all actives have a fitted effect of over 60% in size
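Quantitative HTS in A549 cells stably bearing an antioxidant response element-firefly luciferase construct. Inhibition of Nrf2-driven transcription was scored by luminescence after 18-24 h of compound exposure at 37 °C.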
Nrf2 activator: activators of Nrf2 (ARE) signaling | AREc32 ARE-luciferase reporter (MCF7-derived line), luminescence, 24 h | Potency, µM (doses to about 46.1 µM), hits mostly activators | 410,000 tested, 0.31% active; further: nearly all actives have a fitted effect of over 65% in size
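Luminescent ARE reporter assay in AREc32_Fluc cells: overnight plating at 37 deg C, 24 hr compound incubation, Steady-Glo added, 30 min RT before reading.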
B2AR arrestin: recruits beta-arrestin to the human beta2-adrenergic receptor | P07550 | Potency, µM (titrated, usually from 46.1 µM), most hits filed as activators | 330,000 tested, 0.02% active | beta-arrestin recruitment to beta2AR, cell-based reporter; further: nearly all actives have a fitted effect of over 65% in size
miR-21 FLuc: miR-21 reporter, rising signal | HeLa miR-21 FLuc reporter, luciferase, 48 h | Potency, µM (highest dose often 38.3 µM) | 340,000 tested, under 10 active | AID 2288; active = well fitted rising curve with a large enough effect; inconclusive = small, poorly fitted or top-dose-only effect; inactive = no such curve, though single readings can be large or run the other way;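 further: miR-21 action dims this reporter so a rising signal means less miR-21 action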
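Using DMEM plus 10% FBS, HeLa miR-21-FLuc cells are incubated with test compounds (final up to about 40uM) for 48 hours; firefly luciferase signal is then imaged following reagent-mediated lysis.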
A549 tox-1: A549 cytotoxicity, counter-screen for Nrf2 inhibitors; A549 ARE-Fluc cells, CellTiter-Fluor viability, 18-24 h; Potency, µM (top dose mostly 46 µM), actives largely listed as inhibitors; 390,000 tested, 0.16% active
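Cytotoxicity counterscreen: CellTiter-Fluor fluorescence was measured in A549 ARE_Fluc cells after 18-24 h of compound exposure in a concentration series. The subsequent BugLite luminescent read reports ARE-luciferase activity.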
FLuc enzyme inh: firefly luciferase inhibition, Nrf2 hit validation. shares compounds with Nrf2 inh. Potency, µM (top dose mostly 57.5 µM), actives largely listed as inhibitors. purified firefly luciferase, luminescence inhibition. AID 720522. 1,400 tested, 4% active; further: nearly all actives have a fitted effect of over 65% in size
A549 tox-2: A549 cytotoxicity, Nrf2 inhibitor counterscreen. shares compounds with Nrf2 inh. A549 ARE-Fluc cells, cytotoxicity counterscreen. Potency, µM (series often up to 46.1 µM), hits mostly inhibitors. 1,400 tested, 2% active. AID 720523;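 further: cells exposed to compounds for 18 to 24 hours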
ARE-Fluc inh: confirmation of Nrf2 inhibitors in A549 ARE reporter cells; Potency, µM (top dose mostly 46.1 µM), usual class: inhibitors; AID 720524; 1,400 tested, 74% active; shares compounds with Nrf2 inh; A549 ARE-firefly luciferase reporter, luminescence; further: nearly all actives have a fitted effect of over 65% in size
Numbers stand for hits; n = inactive; u = inconclusive; x = not tested or not shown. Unless noted, the call rests on the fitted dose curve; in most records, active means well fitted curve in the direction sought with a large enough effect; inconclusive means small, poorly fitted or top-dose-only effect, or another doubt; inactive means no such curve, though single readings can be large; an effect the other way counts as inactive or inconclusive.

SMILES	Nrf2 inh	Nrf2 activator	B2AR arrestin	miR-21 FLuc	A549 tox-1	FLuc enzyme inh	A549 tox-2	ARE-Fluc inh
COc1cccc(C2C=C(c3ccccc3)Nc3c(C(=O)Nc4ccccc4)cnn32)c1OC (centres undefined)	2.3µM	n	x	n	n	n	n	u
CCOc1ccc(NC(=O)c2cnn3c2NC(c2ccccc2)=CC3c2cccc(OC)c2OC)cc1 (centres undefined)	n	n	x	n	n	x	x	x
COc1ccc(Cn2cccc(NC(=O)Nc3cccc(C#N)c3)c2=O)cc1	5.2µM	n	n	n	n	n	n	u
Cc1nn(C)c(C)c1CN(C)S(=O)(=O)c1ccc(F)cc1	u	n	n	n	n	x	x	x
Cc1nn(C)c(C)c1CN(C)S(=O)(=O)c1ccc2ccccc2c1	2.5µM	n	n	n	n	n	n	1.2µM
CCCC[n+]1c(/C=C/c2c(OC)cc(OC)cc2OC)ccc2ccccc21	x	x	x	x	x	n	u	1.6µM
CCC[n+]1c(/C=C/c2c(OC)cc(OC)cc2OC)ccc2ccccc21	x	x	x	x	x	n	7.3µM	2.3µM
CCC[n+]1c2ccccc2cc2ccccc21	n	n	n	u	n	x	x	x
CCCC[n+]1c2ccccc2cc2ccccc21	n	n	n	n	n	x	x	x
COc1cc(OC)c(/C=C/c2ccc3ccccc3[n+]2C)c(OC)c1	x	x	x	x	x	n	u	1.6µM
Cc1nc2ccc(S(=O)(=O)N(CC(=O)Nc3cccc(Cl)c3)Cc3ccccc3)cc2s1	u	n	x	n	n	x	x	x
COc1cccc(CNC(=O)c2ccc(CS(=O)Cc3ccc(Cl)cc3)o2)c1 (centres undefined)	n	n	x	n	n	x	x	x
COC(=O)C1=C(Nc2ccc(C)cc2)C=C(C)C(C(=O)OC)C1c1ccc(OC)cc1 (centres undefined)	n	n	n	n	x	x	x	x
COC(=O)C1=C(O)C(C(=O)OC)C(c2ccc(C)cc2)C(C#N)(C#N)C1c1ccc(C)cc1 (centres undefined)	2.9µM	n	n	n	x	n	u	15µM
CCN1/C(=C/c2cc[n+](CCCS(=O)(=O)[O-])c3ccccc23)Sc2ccccc21	n	n	n	n	n	x	x	x
C=CC[n+]1ccc(/C=C2\C=Cc3cc(C)ccc3N2CC)c2ccccc21	7.3µM	n	n	u	u	u	u	x
CC[n+]1ccccc1/C=C1\Sc2ccc(C)cc2N1C	6.5µM	n	n	n	u	n	n	2.9µM
CC(C)(C)c1ccc(-c2noc(CCC(=O)Nc3cccc(Cl)c3)n2)cc1	0.15µM	n	x	u	n	u	n	x
CC(C)(C)c1ccc(-c2noc(CCC(=O)NCc3ccco3)n2)cc1	0.018µM	n	n	n	12µM	1.2µM	n	0.82µM
Cc1cccc(-c2noc(CCC(=O)NCc3ccco3)n2)c1	x	n	n	n	n	x	x	x
O=S(=O)(NCc1cn2ccsc2n1)c1ccc(Oc2ccccc2)cc1	7.3µM	n	n	n	u	n	n	7.3µM
O=S(=O)(NCc1cn2ccsc2n1)c1cccs1	u	n	n	n	n	x	x	x
CCOC(=O)c1sc(NC(=O)c2cc(-c3ccccc3)nc3ccccc23)c(C#N)c1C	4.6µM	n	n	n	u	11µM	u	6.5µM
CCOC(=O)c1sc(NC(=O)c2cccc(S(=O)(=O)N3CCc4ccccc43)c2)c(C#N)c1C	5.8µM	n	n	n	u	n	u	2.9µM
O=C(Nc1ccncc1)c1cccc(S(=O)(=O)N2CCc3ccccc32)c1	8.2µM	n	n	x	n	n	n	7.3µM
SMILES	Nrf2 inh	Nrf2 activator	B2AR arrestin	miR-21 FLuc	A549 tox-1	FLuc enzyme inh	A549 tox-2	ARE-Fluc inh
O=c1[nH]c(=O)n(Cc2ccco2)c2c1C(C(F)(F)F)(C(F)(F)F)N=C(c1ccc(F)cc1)N2	4.1µM	n	n	u	n	n	n	2.9µM
Cc1ccc(C(=O)Nc2ccc3nc(SCC(=O)N4CCCc5ccccc54)sc3c2)cc1	u	n	x	n	n	x	x	x
CC(=O)N1c2ccc(S(=O)(=O)NCCC(=O)Nc3ccc(Br)c(C)c3)cc2CC1C (centres undefined)	u	n	x	n	n	x	x	x
Cc1cc(C(=O)CN2C(=O)c3ccccc3S2(=O)=O)c(C)n1CC1CCCO1 (centres undefined)	0.92µM	n	n	u	n	1.3µM	n	1.2µM
COc1cccc(/C=C/c2nc(C#N)c(N3CCN(C)CC3)o2)c1	n	n	x	n	n	x	x	x
CC(=O)c1cn(CC(=O)Nc2cccc(C)c2C)c2ccccc12	5.2µM	n	n	n	n	n	n	u
CCN(CC)S(=O)(=O)c1ccc2oc(SCC3CN=C(c4ccc(OC)cc4)S3)nc2c1 (centres undefined)	6.5µM	n	n	n	n	n	n	u
COc1ccc(C2=NCC(CSc3nnc(-c4ccc5c(c4)OCO5)o3)S2)cc1 (centres undefined)	u	n	n	n	u	x	x	x
COc1ccc(CCNc2c(C)c(C)nc3ncnn23)cc1	1µM	n	n	n	u	n	n	2.1µM
COc1ccccc1NC(=O)Cn1c(=O)n(CCc2ccccc2)c(=O)c2c3c(sc21)CN(C(C)=O)CC3	n	n	x	n	n	x	x	x
COc1ccc(S(=O)(=O)c2nnn(-c3ccc(C(C)C)cc3)c2C)cc1	9.2µM	n	x	n	n	n	n	5.2µM
CC1CC(C)C(=O)C(C(CC2CC(=O)NC(=O)C2)OC(=O)CC(=O)c2ccccc2)C1 (centres undefined)	5.2µM	n	x	x	u	n	n	0.21µM
O=C1CCC(C(=O)OCC(=O)c2ccccc2)N1 (centres undefined)	n	n	n	n	n	x	x	x
COc1ccc(S(=O)(=O)Nc2ccc(N3CCOCC3)cc2)cc1	u	n	n	n	n	x	x	x
COc1ccc(NS(=O)(=O)c2ccc(N3CCOCC3)c(N)c2)cc1	3.3µM	n	n	x	n	n	n	4.1µM
Cc1ccc(N(CC(=O)N2CCN(c3cccc(C)c3C)CC2)S(=O)(=O)c2c(C)nn(C)c2C)cc1	u	n	x	u	n	x	x	x
CO[C@H]1/C=C/O[C@@]2(C)Oc3c(C)c(O)c4c(O)c(c(C=NN5CCN(C)CC5)c(O)c4c3C2=O)NC(=O)/C(C)=C\C=C\[C@H](C)[C@H](O)[C@@H](C)[C@@H](O)[C@@H](C)[C@H](OC(C)=O)[C@@H]1C	4.1µM	n	n	x	u	n	u	4.6µM
CCCC(=O)Nc1nnc2n1CCS2	x	n	x	n	n	x	x	x
CN(c1cccc(NC(=O)CN(c2ccc(C34CC5CC(CC(C5)C3)C4)cc2)S(C)(=O)=O)c1)S(C)(=O)=O	7.3µM	n	n	n	u	n	u	21µM
